# Values quoted from earlier work, collected in patent publication US7947280B2 (priority 2003, dated 2011).
# System: isolated rat heart
# Conditions: Szokodi et al; cited from earlier work
substance,measurement,value
apelin,maximum developed tension relative to isoproterenol,70%
